Here are results for nine compounds from PubChem BioAssay AID1018 (Sanford-Burnham Center for Chemical Genomics, 2008).

Chains of the proteins cited; added tags and fusions are not shown.
UniProt P98170, whole entry: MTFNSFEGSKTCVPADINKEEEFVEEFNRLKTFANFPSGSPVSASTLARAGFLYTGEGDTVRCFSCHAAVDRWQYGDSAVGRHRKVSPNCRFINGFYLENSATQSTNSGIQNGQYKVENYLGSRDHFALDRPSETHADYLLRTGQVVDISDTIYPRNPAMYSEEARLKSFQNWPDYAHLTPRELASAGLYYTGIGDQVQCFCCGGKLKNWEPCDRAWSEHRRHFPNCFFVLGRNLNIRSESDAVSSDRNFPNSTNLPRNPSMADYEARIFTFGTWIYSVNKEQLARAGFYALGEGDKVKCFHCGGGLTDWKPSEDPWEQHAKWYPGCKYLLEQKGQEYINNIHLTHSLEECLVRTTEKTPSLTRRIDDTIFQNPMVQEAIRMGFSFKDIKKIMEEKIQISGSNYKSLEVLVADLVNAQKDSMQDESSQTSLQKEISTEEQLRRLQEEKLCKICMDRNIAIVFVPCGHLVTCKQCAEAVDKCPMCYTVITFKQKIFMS

The structures appear in SMILES notation. The entries are a selection whose mix differs from that of the whole data set. Some of these compounds have results that are not shown, active ones among them. The source made the active and inactive calls. Rule as the data show it: active = displacement above about 50%; inactive = the rest.

This assay deals with E3 ubiquitin-protein ligase XIAP (Homo sapiens) (UniProt P98170). The assay can be described thus: small molecules displacing peptide from XIAP – biochemical, IAP family, fluorescence polarization (AID 1018). The following applies: XIAP BIR domain, at 20 µM, active compounds read high. Background: Polarisation of emitted light reports the rotation of a fluorescent probe.
As to `CN(C)c1cccc(C(=O)NCC2(N(C)C)CCCCC2)c1`, the displacement is inactive: -6.1%.
For `O=C(OC1CN2CCC1CC2)C(CO)(c1ccccc1)c1ccccc1` (centres undefined), the displacement is inactive: -4.4%.
With `COc1cccc(C(=O)NCC2(N3CCCCC3)CCCCC2)c1`, the displacement is inactive: -3.4%.
For `C=CCN1CCN(CCOC(=O)C(O)(c2ccccc2)c2ccccc2)CC1`, the displacement was inactive: -4.1%.
For `CCN1CCCC(OC(=O)C2(O)c3ccccc3C=Cc3ccccc32)C1` (centres undefined) the value was inactive: -0.8%; for `CN(C)C1CCCC1OC(=O)C(O)(c1ccccc1)c1ccccc1` (centres undefined), inactive: -2.3%.
As for `Cc1ccccc1C(=O)NCC1(N2CCCCC2)CCCCC1`, the displacement is inactive: -6.7%.
For `CC(C)N1C(=O)CC2(CCN(CCOC(=O)C(O)(c3ccccc3)c3ccccc3)CC2)C1=O` the value was inactive: -3%; for `O=C(NCC1(N2CCCCC2)CCCCC1)c1cc([N+](=O)[O-])ccc1Cl`, inactive: 0.3%.
